# In PubChem BioAssay AID720509 (The Scripps Research Institute Molecular Screening Center, 2013):
# The chains behind the UniProt entries cited, without tags or fusion partners.
# UniProt P02675, whole entry, looked up: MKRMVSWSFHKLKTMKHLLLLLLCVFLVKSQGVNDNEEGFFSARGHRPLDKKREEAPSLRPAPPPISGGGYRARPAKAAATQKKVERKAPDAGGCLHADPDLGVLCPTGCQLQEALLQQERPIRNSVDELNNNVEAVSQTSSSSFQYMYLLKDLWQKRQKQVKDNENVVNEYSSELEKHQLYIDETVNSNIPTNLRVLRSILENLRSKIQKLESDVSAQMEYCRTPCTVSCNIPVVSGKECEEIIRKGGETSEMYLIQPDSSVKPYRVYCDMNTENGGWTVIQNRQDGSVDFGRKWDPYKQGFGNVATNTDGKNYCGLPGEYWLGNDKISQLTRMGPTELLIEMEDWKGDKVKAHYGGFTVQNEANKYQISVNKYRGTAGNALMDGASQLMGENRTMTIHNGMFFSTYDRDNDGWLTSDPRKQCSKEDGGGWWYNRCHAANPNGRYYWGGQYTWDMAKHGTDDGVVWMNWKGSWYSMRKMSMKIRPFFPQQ
# This is a selection; strong and weak results do not stand in their true shares. Activity calls are given as the source filed them.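 How the source made its calls: active means inhibition above a per-campaign cutoff: mean of compounds within control limits plus 3 SD (cut at about 15% in these data); inactive means the rest.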
# Target: Fibrinogen beta chain (Homo sapiens) (UniProt P02675)
# Assay: inhibitors of Tn6 peptide binding to fibrin DD(E), primary screen, biochemical, fluorescence polarization, human fibrin, Tn6 probe (AID 720509);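 further: 0% = median of all compound wells on the plate and 100% = blocking peptide control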
# Details: Fibrin DD(E) TRITC-Tn6 fluorescence polarization displacement; at 8.3 µM; hits give high values
row,Compound,inhibition
1,CCCOc1ccc(C(=O)NCC2(N(C)C)CCCCC2)cc1OC,inactive: 0.51%
2,CC(C)(C)n1nnnc1C(c1ccccc1OC(F)(F)F)N1CCC(n2c(=O)[nH]c3ccccc32)CC1 (centres undefined),inactive: 0.79%
3,O=C(NCC1(N2CCCCC2)CCCCC1)c1ccc(OC(F)F)cc1,inactive: -7.9%
4,CCN1CCC(Nc2ccc(Cl)cc2)CC1,inactive: -4.18%
5,N#CC1(Nc2ccccc2)CCN(CCc2ccccc2)CC1,inactive: 2.9%
6,O=c1[nH]c2ccccc2n1C1CCN(C(c2ccccc2OC(F)(F)F)c2nnnn2C2CCCC2)CC1 (centres undefined),inactive: -8.25%
7,CSc1ccc(C(=O)NCC2(N3CCOCC3)CCCCC2)cc1,inactive: 0.54%
8,O=C(NCC1(N2CCCCC2)CCCCC1)c1cccc([N+](=O)[O-])c1,inactive: -10.9%
9,O=C(NCC1(N2CCCCC2)CCCCC1)c1cccc(C(F)(F)F)c1,inactive: 6.94%
10,COc1cc(C(=O)NCC2(N3CCCCC3)CCCCC2)ccc1OC(F)F,inactive: 7.47%
11,O=C(NCC1(N2CCOCC2)CCCCC1)c1cc(=O)[nH]c2ccccc12,inactive: 1.74%
12,CCCCn1nnnc1C(c1cccc2ccccc12)N1CCC(n2c(=O)[nH]c3ccccc32)CC1 (centres undefined),inactive: -3.19%
13,CN1CCN(CCOC(=O)C(O)(c2ccccc2)c2ccccc2)CC1,inactive: -1.49%
14,CC(C)c1ccc(C(=O)NCC2(N3CCOCC3)CCCCC2)cc1,inactive: 7.75%
15,COc1ccc(NC2CCN(C(=O)OC(C)(C)C)CC2)cc1,inactive: -4.31%
16,CC(C)(C)n1nnnc1C(c1ccccc1)N1CCC(n2c(=O)[nH]c3ccccc32)CC1 (centres undefined),inactive: 2.47%
17,O=C1CCN(Cc2ccccc2)CC1,inactive: -2.84%
18,CCOc1ccc(C)cc1CN(CCCl)CCCl,inactive: 2.29%
19,O=C(NCC1(N2CCCCC2)CCCCC1)c1ccc(F)cc1,inactive: 1.35%
20,O=P1(N(CCCl)CCCl)SCCCS1,inactive: -3.4%
21,CCCCn1nnnc1C(c1cc2ccccc2o1)N1CCC(n2c(=O)[nH]c3ccccc32)CC1 (centres undefined),inactive: 5.15%
22,CCCCOc1ccc(C(=O)NCC2(N3CCOCC3)CCCCC2)cc1,inactive: 1.45%
23,COc1ccc(NC2CCN(CCc3ccccc3)CC2)c(OC)c1,inactive: 5.49%
24,CCOC(=O)N1CCC(Nc2ccc(F)cc2)CC1,inactive: 4.97%
25,O=c1[nH]c2ccccc2n1C1CCN(C(c2ccccc2)c2nnnn2C2CCCCC2)CC1 (centres undefined),inactive: -2.89%

row,Compound,inhibition
1,COc1cc(C(=O)NCC2(N(C)C)CCCCC2)ccc1OC(F)F,inactive: -3.7%
2,CCOC(=O)N1CCC(Nc2cccc(C)c2)CC1,inactive: -4.83%
3,O=c1[nH]c2ccccc2n1C1CCN(C(c2cccc3ccccc23)c2nnnn2C2CCCC2)CC1 (centres undefined),inactive: -4.22%
4,COc1ccc(C(=O)NCC2(N3CCCCC3)CCCCC2)cc1,inactive: -3.22%
5,CCC(c1nnnn1C1CCCC1)N1CCC(n2c(=O)[nH]c3ccccc32)CC1 (centres undefined),inactive: -1.5%
6,CC(C)(C)OC(=O)N1CCC(N(C(=O)c2ccccc2)c2ccc(F)cc2)CC1,inactive: -2.49%
7,COc1ccc(C(=O)NCC2(N3CCCCC3)CCCCC2)c(OC)c1OC,inactive: 1.59%
8,O=C(NCC1(N2CCCCC2)CCCCC1)c1ccc(=O)[nH]c1,inactive: 1.41%
9,CCCCn1nnnc1C(c1cccs1)N1CCC(n2c(=O)[nH]c3ccccc32)CC1 (centres undefined),inactive: 10.2%
10,O=C(NCC1(N2CCCCC2)CCCCC1)c1cccs1,inactive: -1.81%
11,CCCCn1nnnc1C(CC)N1CCC(n2c(=O)[nH]c3ccccc32)CC1 (centres undefined),inactive: 0.7%
12,CSc1ccccc1C(=O)NCC1(N2CCCCC2)CCCCC1,inactive: 2.27%
13,Cc1cccc(NC2(C#N)CCN(Cc3ccccc3)CC2)c1,inactive: -4.25%
14,O=c1[nH]c2ccccc2n1C1CCN(C(c2ccccc2OC(F)(F)F)c2nnnn2C2CCCCC2)CC1 (centres undefined),inactive: 8.86%
15,O=C(NCC1(N2CCCCC2)CCCCC1)c1ccc(Cl)nc1,inactive: -6.11%
16,Cc1cc(C)cc(N(C(=O)c2ccccc2)C2CCN(C(=O)OC(C)(C)C)CC2)c1,inactive: 1.03%
17,O=C(NCC1(N2CCOCC2)CCCCC1)c1cc2ccccc2o1,inactive: -5.4%
18,O=C(OC1CN2CCC1CC2)C1c2ccccc2Oc2ccccc21 (centres undefined),inactive: 11.6%
19,O=c1[nH]c2ccccc2n1C1CCN(C(c2cc3ccccc3o2)c2nnnn2C2CCCCC2)CC1 (centres undefined),inactive: 3.72%
20,N#CC1(Nc2ccccc2)CCN(Cc2ccccc2)CC1,inactive: 3.48%
21,O=C(NCC1(N2CCCCC2)CCCCC1)c1ccc(Cl)s1,inactive: -4.82%
22,COc1ccc(Cl)cc1C(=O)NCC1(N2CCOCC2)CCCCC1,inactive: -1.3%
23,CCOC(=O)N1CCC(Nc2ccc(OC)cc2)CC1,inactive: -6.35%
24,CCCCn1nnnc1C(c1ccc(OC)cc1)N1CCC(n2c(=O)[nH]c3ccccc32)CC1 (centres undefined),inactive: -7.56%
